Consider two molecules from PMC7269513 (Antimicrobial Agents and Chemotherapy, 2020).

Protein sequences, listed by entry. Tags and fused reporters are not part of them. Residues count along the entry.
UniProt C7C422, 29-270 limits assumed: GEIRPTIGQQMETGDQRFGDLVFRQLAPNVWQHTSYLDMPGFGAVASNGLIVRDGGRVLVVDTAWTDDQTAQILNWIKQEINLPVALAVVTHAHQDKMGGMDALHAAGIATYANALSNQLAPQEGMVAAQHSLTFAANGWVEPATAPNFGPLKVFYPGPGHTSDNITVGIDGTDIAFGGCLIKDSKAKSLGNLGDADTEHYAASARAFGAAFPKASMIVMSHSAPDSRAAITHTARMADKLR
UniProt Q9F663, 25-293 limits assumed: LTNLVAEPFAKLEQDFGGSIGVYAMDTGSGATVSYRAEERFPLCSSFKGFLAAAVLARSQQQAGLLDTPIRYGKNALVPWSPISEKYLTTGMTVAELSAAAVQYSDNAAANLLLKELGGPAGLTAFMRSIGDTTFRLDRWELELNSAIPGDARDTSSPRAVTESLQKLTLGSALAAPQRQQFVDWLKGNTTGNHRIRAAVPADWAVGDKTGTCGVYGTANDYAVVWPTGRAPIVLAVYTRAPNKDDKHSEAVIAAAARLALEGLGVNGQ

Each structure is given as a SMILES string.

One test has as its target NDM-1 (Klebsiella pneumoniae, UniProt C7C422). As to the kind of experiment: biochemical. As to conditions: Kd values for MBLs were based on Kis.
The target in a further test is KPC-2 (Klebsiella pneumoniae, UniProt Q9F663). As to the kind of experiment: IC50 of beta-lactamase inhibition (nitrocefin hydrolysis). Format: biochemical. The note with it: IC50 (nM) of drug.

In turn, `O=C(O)c1c(F)ccc2c1OB(O)[C@@H]1C[C@H]21` [QPX7728] returned a Kd at NDM-1 of 32 ± 14 nM.
As to `O=C(NC1CCNCC1)[C@@H]1CC[C@@H]2CN1C(=O)N2OS(=O)(=O)O` [Relebactam, relebactam], at KPC-2, it took 82 ± 17 nM to reach half-maximal inhibition (IC50).

A word on the Kd: it is a measure of binding affinity in units of concentration. What is called IC50 is the concentration needed to halve the response being measured. A lower IC50 goes with higher potency.
